{
  "source": "ChEMBL document CHEMBL1145190",
  "about": "“CoMFA and CoMSIA analyses of Pneumocystis carinii dihydrofolate reductase, Toxoplasma gondii dihydrofolate reductase, and rat liver dihydrofolate reductase” (J Med Chem, 2005)",
  "biological_target": "T1, Bifunctional dihydrofolate reductase-thymidylate synthase (Toxoplasma gondii, UniProt Q07422)",
  "T1 sequence (Q07422 whole entry)": "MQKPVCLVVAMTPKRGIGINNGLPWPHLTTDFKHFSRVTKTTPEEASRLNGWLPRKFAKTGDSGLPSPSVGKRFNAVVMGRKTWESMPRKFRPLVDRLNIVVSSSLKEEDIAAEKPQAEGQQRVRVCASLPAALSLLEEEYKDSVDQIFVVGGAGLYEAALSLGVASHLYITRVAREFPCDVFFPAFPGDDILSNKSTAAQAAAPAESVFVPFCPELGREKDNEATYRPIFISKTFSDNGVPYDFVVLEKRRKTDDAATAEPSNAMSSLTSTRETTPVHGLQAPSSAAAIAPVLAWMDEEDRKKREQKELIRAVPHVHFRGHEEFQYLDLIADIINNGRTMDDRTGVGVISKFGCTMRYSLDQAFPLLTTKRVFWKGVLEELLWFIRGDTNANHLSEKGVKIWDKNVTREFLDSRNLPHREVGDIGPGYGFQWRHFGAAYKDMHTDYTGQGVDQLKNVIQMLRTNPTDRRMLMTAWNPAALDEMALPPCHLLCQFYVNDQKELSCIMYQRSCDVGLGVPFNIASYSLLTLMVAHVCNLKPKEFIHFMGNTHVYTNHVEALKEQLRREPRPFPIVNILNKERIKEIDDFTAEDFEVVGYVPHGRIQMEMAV",
  "assay": "Inhibition of Toxoplasma gondii dihydrofolate reductase",
  "note": "pIC50: −log10 of the molar value.",
  "data": [
    {"smiles": "Nc1nc(N)c2c(CSc3ccc4ccccc4c3)coc2n1", "values": [
      {"measurement": "pIC50", "value": 4.49}
    ]}
  ]
}
